This note sets out measurements from ChEMBL document CHEMBL2396551, “Design and synthesis of 6,7-dimethoxyquinazoline analogs as multi-targeted ligands for α1- and AII-receptors antagonism” (Bioorg Med Chem Lett, 2013).

The chains behind the UniProt entries cited, without tags or fusion partners. Where a name states a change or a piece, a line headed by the entry shows the natural chain unless it says otherwise.
UniProt P15823: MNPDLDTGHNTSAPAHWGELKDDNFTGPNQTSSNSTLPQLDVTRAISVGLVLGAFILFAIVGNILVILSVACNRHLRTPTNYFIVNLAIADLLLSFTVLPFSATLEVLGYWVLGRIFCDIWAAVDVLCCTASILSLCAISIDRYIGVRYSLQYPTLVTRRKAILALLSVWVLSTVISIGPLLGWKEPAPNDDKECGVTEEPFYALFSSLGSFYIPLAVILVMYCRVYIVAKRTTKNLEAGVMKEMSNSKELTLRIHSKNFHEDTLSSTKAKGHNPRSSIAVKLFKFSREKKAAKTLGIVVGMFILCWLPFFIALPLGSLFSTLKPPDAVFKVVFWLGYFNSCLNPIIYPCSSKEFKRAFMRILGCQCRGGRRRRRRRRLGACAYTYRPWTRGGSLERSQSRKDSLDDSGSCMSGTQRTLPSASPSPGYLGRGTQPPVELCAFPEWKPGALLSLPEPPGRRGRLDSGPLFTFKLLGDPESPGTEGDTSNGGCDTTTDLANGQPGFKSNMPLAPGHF
UniProt P23944: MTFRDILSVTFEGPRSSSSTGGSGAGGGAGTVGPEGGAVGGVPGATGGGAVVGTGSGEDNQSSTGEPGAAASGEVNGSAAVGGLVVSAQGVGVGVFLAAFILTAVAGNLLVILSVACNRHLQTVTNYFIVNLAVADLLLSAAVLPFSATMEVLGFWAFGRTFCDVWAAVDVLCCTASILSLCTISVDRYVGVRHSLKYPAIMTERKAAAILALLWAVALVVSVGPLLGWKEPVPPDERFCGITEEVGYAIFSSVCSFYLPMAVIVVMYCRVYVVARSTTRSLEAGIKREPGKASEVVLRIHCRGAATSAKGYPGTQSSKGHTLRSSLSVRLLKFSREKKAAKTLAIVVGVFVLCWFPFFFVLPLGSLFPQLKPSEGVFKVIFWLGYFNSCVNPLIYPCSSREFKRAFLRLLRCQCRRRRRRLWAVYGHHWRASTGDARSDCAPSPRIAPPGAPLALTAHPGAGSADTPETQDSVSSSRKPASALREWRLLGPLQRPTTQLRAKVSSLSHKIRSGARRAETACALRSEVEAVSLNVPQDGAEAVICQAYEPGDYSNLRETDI
UniProt P43140: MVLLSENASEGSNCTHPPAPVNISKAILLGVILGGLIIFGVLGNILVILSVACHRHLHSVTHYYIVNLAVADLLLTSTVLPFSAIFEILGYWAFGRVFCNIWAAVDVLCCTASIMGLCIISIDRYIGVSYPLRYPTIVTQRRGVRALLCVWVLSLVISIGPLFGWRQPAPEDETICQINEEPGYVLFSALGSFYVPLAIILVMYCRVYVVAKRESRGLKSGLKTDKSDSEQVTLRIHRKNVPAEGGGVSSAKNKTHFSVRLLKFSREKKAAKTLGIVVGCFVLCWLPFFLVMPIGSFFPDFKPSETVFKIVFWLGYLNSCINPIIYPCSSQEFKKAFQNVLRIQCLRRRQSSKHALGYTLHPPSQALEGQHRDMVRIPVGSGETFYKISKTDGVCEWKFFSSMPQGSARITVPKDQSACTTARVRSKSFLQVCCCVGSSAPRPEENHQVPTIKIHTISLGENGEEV

The target of the test is Adrenergic receptor alpha-1 (Rattus norvegicus, UniProt P15823+P23944+P43140). The test can be described thus: Antagonist activity at alpha1-adrenergic receptor in Wistar rat endothelium denuded thoracic aorta assessed as inhibition of phenylephrine-induced contraction preincubated for 30 mins prior to phenylephrine-challenge. The class given is tissue-based.

With `COc1cc2nc(N3CCN(C(=O)C4CCCO4)CC3)nc(N)c2cc1OC` (stereo unspecified) [TERAZOSIN], the pA2 is reported as 8.65.
